Earlier results on one substance are cited in PMC10644204 (Pharmacology Research & Perspectives, 2023).

In this data set the test system is QT interval. As to conditions: supratherapeutic vs therapeutic doses; cited from earlier work.

As for ritonavir‐boosted lopinavir, the QT prolongation entry was “QT prolongation with supratherapeutic doses but not therapeutic doses”.
